Experimental data reported in patent US20180296707A1, “PHARMACEUTICAL FORMULATION AND METHOD OF PREPARING THE SAME” (SeeCure Taiwan Co., Ltd., priority 2017, published 2018).

Test system: human colorectal tumor
Conditions: mouse, in vivo, iv
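Note: human colorectal tumors grown on the hind legs of athymic nude mice, imaged by micro-PET/CT 21 to 28 days post inoculation, once tumors reached roughly 0.5 cm across.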

Substance: ^18F-FDG
- average tumor/muscle (T/M) count density ratios, approximate range: 0.8-0.9
